# Compound activity from PubChem.
# miR-21 reporter – miR-21 reporter, rising signal | Potency, µM (highest dose often 38.3 µM), for inactives: at the highest dose reporter change, positive = more light | 340,000 tested, under 10 active | HeLa miR-21 FLuc reporter, luciferase, 48 h; active = well fitted rising curve with a large enough effect; inconclusive = small, poorly fitted or top-dose-only effect; inactive = no such curve, though single readings can be large or run the other way;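 note: % of control where 0% means no effect; miR-21 action dims this reporter so a rising signal means less miR-21 action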
#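 Compounds were titrated across several concentrations (up to approximately 40 uM) and incubated 48 hours with HeLa miR-21-FLuc reporter cells (miR-21 target sequence downstream of FLuc, endogenous miR-21). Readout was firefly luciferase luminescence after lytic detection reagent.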
# Nrf2 inh – Nrf2 pathway inhibition; Potency, µM (doses to about 46 µM), inactives show top-dose activity change, negative = inhibition, usual class: inhibitors; hit rate 2.1% among 360,000; A549 ARE-Fluc reporter, luciferase luminescence, 18-24 h; further: potency means the concentration at half of the fitted maximal effect; on the % scale 0 is the no-effect control and ±100 the full control effect; nearly all actives have a fitted effect of over 60% in size
#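 Quantitative HTS in A549 cells stably bearing an antioxidant response element-firefly luciferase construct. Inhibition of Nrf2-driven transcription was scored by luminescence after 18-24 h of compound exposure at 37 °C.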
# A549 viability – A549 cytotoxicity, counter-screen for Nrf2 inhibitors | AID 504648 | Potency, µM (top dose mostly 46 µM), for the others: at the top dose activity change, negative = cytotoxicity, hits mostly inhibitors | A549 ARE-Fluc cells, CellTiter-Fluor viability, 18-24 h | hit rate 0.16% among 390,000; further: potency means the concentration at half of the fitted maximal effect; on the % scale 0 is the no-effect control and ±100 the full control effect
#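 Cytotoxicity counterscreen: CellTiter-Fluor fluorescence was measured in A549 ARE_Fluc cells after 18-24 h of compound exposure in a concentration series. The subsequent BugLite luminescent read reports ARE-luciferase activity.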
# Glioma ERSR ind – induces the endoplasmic reticulum stress response in human glioma cells | U87-MG GRP78 promoter luciferase reporter, 16 h | Potency, µM, without a hit: at the highest dose activation, actives largely listed as activators | hit rate 0.02% among 420,000 | AID 602332; further: potency means the concentration at half of the fitted maximal effect; series mostly up to about 76 µM; % of control where 0% means no effect; nearly all actives have a fitted effect of over 35% in size
#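 Stably transfected U87-MG human glioma cells carrying a GRP78-based luminescent sensor were seeded at 1000 cells/well, pin-dosed with compounds and incubated 16 h. Luciferase reagent was then added, and end-point luminescence was read after 10 min at room temperature.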
# Mito fusion act – blocks mitochondrial division or promotes mitochondrial fusion; hit rate 0.23% among 320,000; Potency, µM (titrated, usually from 46.1 µM), without a hit: at the highest dose growth rescue (activation), hits mostly activators; S. cerevisiae fusion-defective mutant growth rescue, CellTiterGlo 48 h; further: potency means the concentration at half of the fitted maximal effect; % of control where 0% means no effect; nearly all actives have a fitted effect of over 45% in size
#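 Yeast fusion mutant, YPEG (non-fermentable carbon), compound, 48 h at 37C non-permissive; CellTiterGlo added, 10 min RT, luminescence read. Rescued growth = division inhibition.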
# Nrf2 ARE act – Nrf2 pathway activation | AREc32 ARE-luciferase reporter (MCF7-derived line), luminescence, 24 h | Potency, µM (highest dose often 46.1 µM), inactives show at the highest dose activation, hits mostly activators | hit rate 0.31% among 410,000; further: potency means the concentration at half of the fitted maximal effect; % of control where 0% means no effect; nearly all actives have a fitted effect of over 65% in size
#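 Luminescent ARE reporter assay in AREc32_Fluc cells: overnight plating at 37 deg C, 24 hr compound incubation, Steady-Glo added, 30 min RT before reading.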
# Numbers without * were called inactive; ? = inconclusive; . = no result. This is a sample that favours compounds with a hit; in the whole collection about 2.3% have one here. Unless noted, the call rests on the fitted dose curve; in most records, active means well fitted curve in the direction sought with a large enough effect; inconclusive means small, poorly fitted or top-dose-only effect, or another doubt; inactive means no such curve, though single readings can be large; an effect the other way counts as inactive or inconclusive.
# Labels used below: A = miR-21 reporter; B = Nrf2 inh; C = A549 viability; D = Glioma ERSR ind; E = Mito fusion act; F = Nrf2 ARE act
1	Cc1ccc(/C=C2\SC(=S)N(CCCC(=O)Nc3ccc(O)cc3)C2=O)cc1
  A: ? | B: 16µM* | C: -13% | D: -13% | E: -2% | F: 0%

2	O=C(CCCN1C(=O)/C(=C/c2ccc3c(c2)OCO3)SC1=S)Nc1ccc(C(=O)O)cc1
  A: -2% | B: 10µM* | C: 3% | D: -15% | E: -1% | F: -2%

3	Cc1ccc(/C=C2\SC(=S)N(CCCC(=O)Nc3ccccn3)C2=O)cc1
  A: ? | B: 2.3µM* | C: ? | D: -14% | E: 0% | F: -2%

4	Cc1ccc(NC(=O)CCCN2C(=O)c3cccc4cccc(c34)C2=O)cc1
  A: -10% | B: 15µM* | C: ? | D: -3% | E: 4% | F: 0%

5	Cc1ccc(/C=C2\SC(=S)N(CCCC(=O)Nc3ccccc3C(=O)O)C2=O)cc1
  A: 3% | B: 15µM* | C: 2% | D: -17% | E: 4% | F: -2%

6	CCc1ccc(/C=C2\SC(=S)N(CCCC(=O)Nc3ccccc3C(=O)O)C2=O)cc1
  A: -3% | B: 2% | C: 4% | D: -16% | E: 1% | F: -1%

7	CCCCOC(=O)C1C2C=CC3(CN(CCc4ccccc4)C(=O)C13)O2 (configuration not stated)
  A: -7% | B: -7% | C: -2% | D: 2% | E: -2% | F: 0%

8	CN(C(=O)c1cccc(NC(=O)Cc2ccc(NC(=O)C3CCCN(C(=O)CCc4ccccc4)C3)cc2)c1)C1CCCCC1 (configuration not stated)
  A: . | B: 10µM* | C: -12% | D: -1% | E: . | F: 5%

9	CN(Cc1ccccc1)C(=O)c1cccc(NC(=O)Cc2ccc(NC(=O)C3CCN(C(=O)CCc4ccccc4)CC3)cc2)c1
  A: . | B: 16µM* | C: -17% | D: -5% | E: . | F: 4%

10	CN(C(=O)c1ccc(NC(=O)Cc2ccc(NC(=O)C3CCCN(C(=O)CCc4ccccc4)C3)cc2)cc1)C1CCCC1 (configuration not stated)
  A: . | B: 23µM* | C: -6% | D: 0% | E: . | F: 4%

# Labels used below: A = miR-21 reporter; B = Nrf2 inh; C = A549 viability; D = Glioma ERSR ind; E = Mito fusion act; F = Nrf2 ARE act
11	Cc1nc(NC(=O)CCl)sc1C(=O)N(C)C
  A: 12% | B: -21% | C: -4% | D: 11% | E: -5% | F: 13µM*

12	CCCC(c1nnnn1CS(=O)(=O)c1ccc(C)cc1)N1CCN(c2ccccc2)CC1 (configuration not stated)
  A: -2% | B: -1% | C: 5% | D: -5% | E: 15% | F: -1%

13	CCCCC(c1nnnn1CC1CCCO1)N1CCN(c2nc3ccccc3s2)CC1 (configuration not stated)
  A: -10% | B: ? | C: -9% | D: -4% | E: 14µM* | F: 3%

14	CCC(c1nnnn1CS(=O)(=O)c1ccc(C)cc1)N1CCN(c2nc3ccccc3s2)CC1 (configuration not stated)
  A: 1% | B: 8.2µM* | C: -7% | D: -5% | E: 24% | F: 2%

15	COCCn1nnnc1C(c1ccc(OC)c(OC)c1)N1CCN(c2nc3ccccc3s2)CC1 (configuration not stated)
  A: 0% | B: 9.2µM* | C: 10% | D: -6% | E: 0% | F: 6%

16	CCCC(c1nnnn1CC1CCCO1)N1CCN(c2nc3ccccc3s2)CC1 (configuration not stated)
  A: -5% | B: -15% | C: -3% | D: -2% | E: 13% | F: -1%

17	CCOC(=O)c1c(NC(=O)C[n+]2ccc(Cc3ccccc3)cc2)sc(C)c1C
  A: 22% | B: -4% | C: -7% | D: -6% | E: 8% | F: 5%

18	Clc1ccc(N2CCN(Cc3cc4ccccn4n3)CC2)cc1
  A: . | B: . | C: . | D: -5% | E: 23µM* | F: .

19	Clc1ccc(N2CCN(Cc3ccc(Br)o3)CC2)cc1
  A: 8% | B: 0% | C: 1% | D: -5% | E: 1% | F: 0%

20	Cc1cccc(N(CC(O)CN2CCCC2)S(=O)(=O)c2ccccc2)c1 (configuration not stated)
  A: -4% | B: -12% | C: -17% | D: -4% | E: -6% | F: -1%

# A run of entries taken from the entries so far, for reference:
# Labels used below: A = miR-21 reporter; B = Nrf2 inh; C = A549 viability; D = Glioma ERSR ind; E = Mito fusion act; F = Nrf2 ARE act
11	Cc1nc(NC(=O)CCl)sc1C(=O)N(C)C
  A: 12% | B: -21% | C: -4% | D: 11% | E: -5% | F: 13µM*

12	CCCC(c1nnnn1CS(=O)(=O)c1ccc(C)cc1)N1CCN(c2ccccc2)CC1 (configuration not stated)
  A: -2% | B: -1% | C: 5% | D: -5% | E: 15% | F: -1%

13	CCCCC(c1nnnn1CC1CCCO1)N1CCN(c2nc3ccccc3s2)CC1 (configuration not stated)
  A: -10% | B: ? | C: -9% | D: -4% | E: 14µM* | F: 3%

# Following part.
# Labels used below: A = miR-21 reporter; B = Nrf2 inh; C = A549 viability; D = Glioma ERSR ind; E = Mito fusion act; F = Nrf2 ARE act
21	CC(C)CCNCC(O)CON=C1c2ccccc2-c2ccccc21 (configuration not stated)
  A: ? | B: 12% | C: 7% | D: -3% | E: 0% | F: -1%

22	CS(=O)(=O)N(CC(O)CON=C1c2ccccc2-c2ccccc21)c1ccc(F)cc1 (configuration not stated)
  A: 15% | B: 8.2µM* | C: -26% | D: -1% | E: -4% | F: 0%

23	Cc1cccc(N(CC(O)CON=C2c3ccccc3-c3ccccc32)S(C)(=O)=O)c1 (configuration not stated)
  A: 21% | B: 18µM* | C: ? | D: -2% | E: 25% | F: 3%

24	COc1ccc(CNC(=O)CCCn2c(=O)c3cccn3c3cccnc32)cc1
  A: -12% | B: -24% | C: 0% | D: -8% | E: . | F: 1%

25	C=Cc1ccc(Cn2c(C(=O)O)c(CNCc3ccccc3)c3ccc(C)cc32)cc1
  A: ? | B: ? | C: 16µM* | D: 19% | E: . | F: -2%

26	COc1cccc(N=Nc2ccc(O)c3ncccc23)c1
  A: -11% | B: ? | C: ? | D: 4% | E: 31% | F: 11µM*

27	O=S(=O)(O)c1cccc2c(N=Nc3ccc(O)c4ncccc34)cccc12
  A: 6% | B: -39% | C: 12µM* | D: -5% | E: 0% | F: -1%

28	COc1ccc(N=Nc2ccc(O)c3ncccc23)cc1
  A: 0% | B: 12µM* | C: ? | D: 0% | E: 7% | F: ?

29	Cc1ccccc1N=Nc1ccc(O)c2ncccc12
  A: ? | B: -21% | C: -17% | D: -1% | E: 15% | F: 9%

30	O=Nc1ccc(O)c2ncccc12
  A: ? | B: ? | C: ? | D: -12% | E: -2% | F: ?

# Labels used below: A = miR-21 reporter; B = Nrf2 inh; C = A549 viability; D = Glioma ERSR ind; E = Mito fusion act; F = Nrf2 ARE act
31	CCCc1cc(C(=O)Nc2sc3c(c2C#N)CCC3)no1
  A: 0% | B: 7% | C: -4% | D: 2% | E: 30% | F: 4%

32	Cc1c(S(=O)(=O)c2ccccn2)c(N)n(Cc2cccc(Cl)c2)c1C
  A: 3% | B: 0% | C: 0% | D: -3% | E: 1% | F: 1%

33	CC1=NOC2(C1)/C(=N/O)CCC/C2=N\O (configuration not stated)
  A: 3% | B: . | C: 9% | D: 5% | E: -3% | F: 0%

34	C/C(CCCO)=N/Nc1ccc([N+](=O)[O-])cc1[N+](=O)[O-]
  A: 7% | B: -25% | C: -20% | D: -2% | E: -4% | F: 4%

35	CCN(C(=O)Cn1c([N+](=O)[O-])cnc1C)c1ccccc1
  A: -3% | B: 4% | C: -2% | D: 1% | E: 1% | F: 0%

36	CC(NC(=O)COC(=O)/C=C/c1ccco1)c1ccccc1 (configuration not stated)
  A: 7% | B: 16% | C: -9% | D: -3% | E: -2% | F: 13µM*

37	CC1CC(C)CN(C(=O)COC(=O)/C=C/c2ccco2)C1 (configuration not stated)
  A: . | B: 0% | C: 18% | D: 2% | E: . | F: 14µM*

38	CCN(CC)S(=O)(=O)c1cc(NC(=O)CSc2n[nH]c(N)n2)ccc1C
  A: . | B: -7% | C: -2% | D: -3% | E: -4% | F: 0%

39	CN(c1ccccc1)S(=O)(=O)c1cccc(NC(=O)Cc2n[nH]c(=O)c3ccccc23)c1
  A: . | B: 16µM* | C: -9% | D: -4% | E: 6% | F: 0%

40	Cc1ccc(NC(=O)Cc2n[nH]c(=O)c3ccccc23)cc1S(=O)(=O)N1CCCCCC1
  A: . | B: 10µM* | C: -18% | D: -4% | E: -1% | F: 2%
